## Cyclic peptide permeability, from CycPeptMPDB

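The data file gives no further conditions (lipid, pH, time, direction or concentration), and values from different papers need not be comparable. The list need not hold all peptides of the study. Peptides that the database sets to -10, its floor, are left out.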

PAMPA measures passive passage through an artificial lipid membrane. Permeability is in 10^-6 cm/s, converted from the database's log10 values; higher is more permeable.

* CC(C)C[C@H]1NC(=O)[C@H]2CCCN2C(=O)[C@@H](CC(C)C)NC(=O)CN(Cc2ccccc2)C(=O)[C@@H](C)N(C)C(=O)[C@H](Cc2ccccc2)NC1=O: PAMPA 0.91 × 10^-6 cm/s
* CC(C)C[C@H]1C(=O)N[C@@H](Cc2ccccc2)CC(=O)N2CCC[C@H]2C(=O)N(Cc2ccccc2)CC(=O)N[C@@H](Cc2ccccc2)C(=O)N2CCC[C@@H]2C(=O)N(C)[C@@H](C)C(=O)N1C: PAMPA 1.7 × 10^-6 cm/s
* CCCN1CC(=O)N(C)[C@H](CC(C)C)C(=O)N(C)[C@@H](CC(C)C)C(=O)N2CCC[C@H]2C(=O)N(C)[C@@H](CC(C)C)C(=O)N[C@@H](Cc2ccccc2)C1=O: PAMPA 19 × 10^-6 cm/s
* CC(C)C[C@@H]1NC(=O)[C@@H]2CCCN2C(=O)[C@H](CC(C)C)N(C)C(=O)[C@@H](CC(C)C)N(C)C(=O)[C@H](C)N(C)C(=O)[C@H]2CCCN2C(=O)[C@H](Cc2ccccc2)NC1=O: PAMPA 4.1 × 10^-6 cm/s
* CCCN1CC(=O)N[C@@H](CC(C)C)C(=O)N[C@@H](CC(C)C)C(=O)N2CCC[C@@H]2C(=O)N(Cc2ccccc2)CC(=O)N[C@@H](Cc2ccccc2)C(=O)N2CCC[C@@H]2C1=O: PAMPA 1.8 × 10^-6 cm/s
* CCCN1CC(=O)N(C)[C@@H](CC(C)C)C(=O)N(C)[C@@H](CC(C)C)C(=O)N2CCC[C@@H]2C(=O)N[C@@H](CC(C)C)C(=O)N[C@@H](Cc2ccccc2)C(=O)N2CCC[C@@H]2C1=O: PAMPA 2.6 × 10^-6 cm/s
* CC(C)C[C@H]1C(=O)N(Cc2ccccc2)CC(=O)N2CCC[C@@H]2C(=O)N(Cc2ccccc2)CC(=O)N[C@@H](Cc2ccccc2)C(=O)N2CCC[C@H]2C(=O)N(C)[C@H](C)C(=O)N1C: PAMPA 3.2 × 10^-6 cm/s
* CC(C)C[C@@H]1C(=O)N[C@H](CC(C)C)C(=O)N2CCC[C@@H]2C(=O)N[C@H](CC(C)C)C(=O)N[C@@H](Cc2ccccc2)C(=O)N(C)[C@H](C)C(=O)N1C: PAMPA 1.4 × 10^-6 cm/s
* CC(C)C[C@@H]1NC(=O)[C@@H]2CCCN2C(=O)[C@H](CC(C)C)N(C)C(=O)[C@H](CC(C)C)NC(=O)[C@H](C)N(C)C(=O)[C@H]2CCCN2C(=O)[C@H](Cc2ccccc2)NC1=O: PAMPA 4.7 × 10^-6 cm/s
* CCCN1CC(=O)N[C@H](CC(C)C)C(=O)N(C)[C@H](CC(C)C)C(=O)N2CCC[C@@H]2C(=O)N(Cc2ccccc2)CC(=O)N[C@@H](Cc2ccccc2)C(=O)N2CCC[C@H]2C1=O: PAMPA 1.3 × 10^-6 cm/s
* CCCN1CC(=O)N[C@H](CC(C)C)C(=O)N(C)[C@@H](CC(C)C)C(=O)N2CCC[C@@H]2C(=O)N(Cc2ccccc2)CC(=O)N[C@@H](Cc2ccccc2)C(=O)N2CCC[C@@H]2C1=O: PAMPA 2.1 × 10^-6 cm/s
* CC(C)C[C@@H]1C(=O)N[C@@H](Cc2ccccc2)C(=O)N2CCC[C@@H]2C(=O)N[C@H](C)C(=O)N(C)[C@@H](CC(C)C)C(=O)N(C)[C@H](CC(C)C)C(=O)N2CCC[C@@H]2C(=O)N1C: PAMPA 2.5 × 10^-6 cm/s
* CC(C)C[C@@H]1NC(=O)[C@H](C)N(C)C(=O)[C@H]2CCCN2C(=O)[C@H](Cc2ccccc2)NC(=O)[C@@H](CC(C)C)N(C)C(=O)[C@@H]2CCCN2C(=O)[C@H](CC(C)C)N(C)C1=O: PAMPA 6.8 × 10^-6 cm/s
* CC(C)C[C@@H]1C(=O)N2CCC[C@@H]2C(=O)N[C@H](CC(C)C)C(=O)N[C@@H](Cc2ccccc2)C(=O)N2CCC[C@@H]2C(=O)N[C@H](C)C(=O)N(C)[C@@H](CC(C)C)C(=O)N1C: PAMPA 1 × 10^-6 cm/s
* CC(C)C[C@@H]1C(=O)N2CCC[C@H]2C(=O)N[C@H](CC(C)C)C(=O)N[C@@H](Cc2ccccc2)C(=O)N2CCC[C@@H]2C(=O)N(C)[C@@H](C)C(=O)N[C@H](CC(C)C)C(=O)N1C: PAMPA 1 × 10^-6 cm/s
* CC(C)C[C@@H]1C(=O)N(C)[C@@H](CC(C)C)C(=O)N2CCC[C@H]2C(=O)N[C@H](CC(C)C)C(=O)N[C@@H](Cc2ccccc2)C(=O)N2CCC[C@@H]2C(=O)N(C)[C@@H](C)C(=O)N1C: PAMPA 4.7 × 10^-6 cm/s
* CC(C)C[C@@H]1NC(=O)[C@H]2CCCN2C(=O)CN(Cc2ccccc2)C(=O)[C@@H](CC(C)C)N(C)C(=O)[C@H](C)N(C)C(=O)[C@H](Cc2ccccc2)NC1=O: PAMPA 2.5 × 10^-6 cm/s
* CCCN1CC(=O)N[C@H](CC(C)C)C(=O)N(Cc2ccccc2)CC(=O)N2CCC[C@@H]2C(=O)N(Cc2ccccc2)CC(=O)N[C@@H](Cc2ccccc2)C(=O)N2CCC[C@H]2C1=O: PAMPA 0.38 × 10^-6 cm/s
* CCCN1CC(=O)N[C@H](CC(C)C)C(=O)N[C@@H](CC(C)C)C(=O)N2CCC[C@@H]2C(=O)N[C@H](CC(C)C)C(=O)N[C@@H](Cc2ccccc2)C(=O)N2CCC[C@H]2C1=O: PAMPA 0.11 × 10^-6 cm/s

Repeated from above, the 2 entries with the highest PAMPA:

{"smiles": "CCCN1CC(=O)N(C)[C@H](CC(C)C)C(=O)N(C)[C@@H](CC(C)C)C(=O)N2CCC[C@H]2C(=O)N(C)[C@@H](CC(C)C)C(=O)N[C@@H](Cc2ccccc2)C1=O", "PAMPA (10^-6 cm/s)": "19"}
{"smiles": "CC(C)C[C@@H]1NC(=O)[C@H](C)N(C)C(=O)[C@H]2CCCN2C(=O)[C@H](Cc2ccccc2)NC(=O)[C@@H](CC(C)C)N(C)C(=O)[C@@H]2CCCN2C(=O)[C@H](CC(C)C)N(C)C1=O", "PAMPA (10^-6 cm/s)": "6.8"}

Source: CycPeptMPDB (Li et al. 2023), which took these values from Townsend et al. 2020, doi:10.26434/chemrxiv.13335941.v1.